# System: Male, Swiss Webster mice
# Experiment: Attenuation of cocaine-induced lethality, pre-treatment
# Format: in vivo
# Conditions: agonist 30 mg/kg i.p. 15 min before cocaine 125 mg/kg i.p.
row,SMILES,protection against cocaine-induced lethality by sigma receptor agonists
1,"CC(C)=CCN1CCC2(C)c3cc(O)ccc3CC1C2C (single isomer, unassigned; (+)) [(+)-Pentazocine, reference compound]",failed to protect against the lethal effects of cocaine

# Same assay, conditions: historic sigma compounds 0-60 mg/kg i.p. 15 min before cocaine 125 mg/kg i.p.
row,SMILES,attenuation of cocaine-induced lethality (proportion of mice dying)
1,"OC(CCCN1CCN(c2ncc(F)cn2)CC1)c1ccc(F)cc1 (stereo not drawn) [BMY14802, reference compound]",significant attenuation
2,O=C(CCCN1CCC(O)(c2ccc(Cl)cc2)CC1)c1ccc(F)cc1 [Haloperidol],significant attenuation
3,C=CCN1CC[C@]23c4c5ccc(O)c4O[C@H]2C(=O)CC[C@@]3(O)[C@H]1C5 [Naloxone],ineffective
4,OC(CCCN1CCC(O)(c2ccc(Cl)cc2)CC1)c1ccc(F)cc1 (stereo not drawn) [Reduced haloperidol],significant attenuation
5,"C[C@@H]1CN(CCCn2c3ccccc3c3ccccc32)C[C@H](C)N1 [Rimcazole, reference compound]",ineffective

# Same assay, conditions: ligand 0-30 mg/kg i.p. 15 min before cocaine 125 mg/kg i.p.; observed 30 min
row,SMILES,attenuation of cocaine-induced lethality (proportion of mice dying)
1,CN(C)CCN(C)CCc1ccc(Cl)c(Cl)c1 [BD1047],significant attenuation
2,CN1CCN(CCc2ccc(Cl)c(Cl)c2)CC1 [BD1063],significant attenuation

# System: Male, Swiss Webster mice
# Experiment: Attenuation of cocaine-induced locomotor activity
# Format: in vivo
# Conditions: BD1008 1 mg/kg i.p. or BD1063 30 mg/kg i.p. 15 min before cocaine 0-20 mg/kg i.p.
row,SMILES,ED50 for the locomotor stimulatory effects of cocaine in the presence of the ligand
1,CN1CCN(CCc2ccc(Cl)c(Cl)c2)CC1 [BD1063],"16 mg/kg, i.p."

# System: Male, Swiss Webster mice
# Experiment: Attenuation of cocaine-induced convulsions, systemic pre-treatment
# Conditions: ligand 0-30 mg/kg i.p. 15 min before cocaine 60 mg/kg i.p.; observed 30 min; Fisher's exact test
row,SMILES,attenuation of cocaine-induced convulsions (proportion of mice convulsing)
1,COc1cccc(CC(=O)N(C)CCN2CCCC2)c1 [YZ-005],ineffective
2,COc1ccc(CC(=O)N(C)CCN2CCCC2)cc1 [YZ-007],ineffective
3,COc1ccccc1CC(=O)N(C)CCN1CCCC1 [YZ-008],ineffective
4,CN(CCc1ccc(N)cc1)CCN1CCCC1 [YZ-030],intermediate protection
5,CN(CCc1ccccc1N)CCN1CCCC1 [YZ-032],intermediate protection
6,CN(CCc1cccc(N)c1)CCN1CCCC1 [YZ-033],intermediate protection
7,COc1ccccc1CC(=O)N1CCN(CCCc2ccccc2)CC1 [YZ-048-2],significantly attenuated cocaine-induced convulsions
8,COc1ccc(CC(=O)N2CCN(CCCc3ccccc3)CC2)cc1 [YZ-051-2],significantly attenuated cocaine-induced convulsions
9,COc1ccc(CCN2CCN(CCCc3ccccc3)CC2)cc1 [YZ-067-2],significantly attenuated cocaine-induced convulsions
10,Clc1ccc(CCN2CCN(CCCc3ccccc3)CC2)cc1Cl [YZ-069-2],significantly attenuated cocaine-induced convulsions
11,COc1cccc(CCN2CCN(C(=O)Cc3cccc(OC)c3)CC2)c1 [YZ-085-2],significantly attenuated cocaine-induced convulsions
12,NCCN1CCN(CCCc2ccccc2)CC1 [YZ-136-2],significantly attenuated cocaine-induced convulsions
13,O=C(Cc1ccc([N+](=O)[O-])cc1)N1CCN(CCCc2ccccc2)CC1 [YZ-155-2],significantly attenuated cocaine-induced convulsions
14,Nc1ccccc1CCN1CCN(CCCc2ccccc2)CC1 [YZ-165-2-2],significantly attenuated cocaine-induced convulsions
15,COc1ccccc1CCN1CCN(CCCc2ccccc2)CC1 [YZ-184-2],significantly attenuated cocaine-induced convulsions

# Reference: patent US20030171347A1, “Sigma receptor antagonists having anti-cocaine properties and uses thereof” (priority 1998, published 2003)
